## Measured affinities in a library of Ab-95 light chain variants

All variants were tested on one target, the spike HR2 peptide PDVDLGDISGINAS (SARS-CoV-2).

Parent: Ab-95, a human scFv built as VH, the linker GGGGSGGGGSGGGGS, VL. Only the CDRs of the light chain vary.
VH: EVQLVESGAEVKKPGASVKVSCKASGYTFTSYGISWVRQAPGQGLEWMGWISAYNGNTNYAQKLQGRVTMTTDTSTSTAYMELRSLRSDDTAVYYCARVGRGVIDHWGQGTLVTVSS
VL: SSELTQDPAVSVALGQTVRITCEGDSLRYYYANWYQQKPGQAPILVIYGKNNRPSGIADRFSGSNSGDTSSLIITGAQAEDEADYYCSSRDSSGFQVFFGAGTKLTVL

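The parent was found by panning a naive human phage display library on the peptide. AAYL52 was designed without a model: most single CDR substitutions and a random sample of double and triple ones. The assay is AlphaSeq: two haploid yeast populations carry antibody and antigen on their surface. Binding brings cells together so that they mate, and sequencing counts the barcode pairs among the diploids. A regression on co-assayed BCL2-family reference pairs converts the normalised counts of each replicate to an apparent Kd. There are three technical replicates.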

Substitutions are numbered in sequence along the VL above, starting at 1 (not Kabat). Scale: log10 of Kd in nM, estimated from mating counts; low values are strong binders. "n.d." marks a missing value. The strain was present, yet no cells mated with the target were sequenced in that replicate, which points to weak or no binding. For reference, the parent read 2.31 as the reference entry and 2.25 as a member of this library.

changes	log10 Kd, replicates	control signals
S88K R90F D91E	n.d. n.d. 3.48	1/9 (3.26)
R53L S89R V97D	4.70 n.d. n.d.	1/9 (3.19)
R53A S92Y F95P	n.d. 3.85 3.86	2/9 (4.15)
N33P N51G F95P	3.41 4.24 n.d.	4/9 (4.12)
N33C S55P V97Q	n.d. n.d. 3.76	3/9 (3.24)
G24E S26N K50L	3.54 n.d. n.d.	4/9 (4.98)
G49E K50M R90I	n.d. n.d. n.d.	3/9 (3.21)
V97Y	n.d. 3.70 n.d.	3/9 (4.20)
E23W F95N V97W	4.13 3.23 n.d.	3/9 (3.95)
E23N S93C G94T	2.02 1.86 2.09	2/9 (3.89)
L27Q N33C S55P	3.77 n.d. n.d.	4/9 (4.01)
A32F K50F S93D	n.d. 4.75 n.d.	3/9 (4.35)
E23C D91F	n.d. n.d. n.d.	2/9 (4.24)
G24T A32C S92E	4.55 n.d. n.d.	1/9 (4.94)
Q96I	2.77 2.38 2.31	5/9 (4.35)
S26L S89D Q96P	n.d. n.d. n.d.	3/9 (3.30)
N33M N51D R53Q	n.d. n.d. n.d.	1/9 (4.63)
Q96R	2.56 2.31 2.09	4/9 (4.24)
N33H K50E F95Y	3.26 4.31 4.21	5/9 (4.71)
R28F P54Q S93E	4.61 n.d. n.d.	0/9
G24K G49P V97S	3.33 n.d. n.d.	1/9 (3.51)
E23P G24I S89D	4.40 n.d. n.d.	1/9 (3.30)
D25H V97H	2.54 2.68 2.92	4/9 (3.74)
N51C S92F Q96M	4.25 3.65 n.d.	4/9 (4.13)
N52F S93W	4.09 3.76 3.17	1/9 (3.30)
G49F S55E S89D	n.d. n.d. 2.83	4/9 (4.16)
S26K K50D R90A	n.d. 4.52 n.d.	1/9 (4.39)
L27P P54K Q96A	n.d. 4.46 3.29	1/9 (4.19)
Y30H Y31F	1.38 1.31 1.05	5/9 (3.99)
R28G	2.03 2.45 2.02	4/9 (3.29)
R28Q Y29E P54C	2.98 n.d. 4.22	2/9 (3.67)
Y30R S55D	3.20 2.80 3.95	2/9 (4.18)
G24I D25S R53V	4.80 4.15 n.d.	3/9 (4.29)
Y30P Y31Q G94P	1.89 1.73 1.41	2/9 (3.89)
A32K N51G V97P	n.d. n.d. n.d.	5/9 (4.22)

Excerpt, the first 2 entries:

changes,"log10 Kd, replicates",control signals
S88K R90F D91E,n.d. n.d. 3.48,1/9 (3.26)
R53L S89R V97D,4.70 n.d. n.d.,1/9 (3.19)

Empty control strains, which show no peptide, gave a signal in 28% of pairings with library AAYL52; the median was 3.91 and 95% of these signals were weaker than 2.90. No background was subtracted. Also given: how often the same scFv was detected with the empty control strains, with their mean in brackets.

The measurements come from Engelhart et al. 2022 (doi:10.1038/s41597-022-01779-4) through the FLAb antibody collection.